Assay results reported in patent US20190351069A1, “Coating of Nanoparticle Surfaces with Cyclopeptides for Improving Delivery of Agents Via the Oral Route” (Ruprecht-Karls-Universität Heidelberg, priority 2016, published 2019).

Legend:
[1] = Animal trial: liver enrichment of I-131 radiolabeled Myrcludex B after oral application; type: in vivo, male Wistar rats; settings: oral gavage, 0.5 MBq, rats sacrificed 3 hours after oral application
Description: The animal study was performed according to local authorities using male Wistar rats with a body weight of about 200 to 250 g. In this study, the tyrosine-modified analogue of the lipopeptide Myrcludex B was labeled with ^131l and encapsulated by the surface-coated nanoparticles as described above. 3 hours after oral administration, the organ distribution was measured by direct counting of the radiolabeled sample. Briefly, three groups (n≥3) of Wistar rats were formed.
Prior to 12 hours of the experiment, the rats were kept without food, but with free access to water. Oral application of the surface-coated nanoparticles and the free peptide drug took place by gavage. […] The rats were sacrificed 3 hours after oral application, the organ tissues were removed, weighed and the radioactivity was measured using a Berthold LB 951 G counter in comparison with standards. Due to the specific accumulation of Myrcludex B in the liver, the liver-associated activity was related to the total injected dose (ID) and expressed as a percentage of the total injected dose per gram of tissue (% ID/g). • Statistical Analyses […]

[2] = Myrcludex B per se; cited from earlier work

In the case of Myrcludex B, the “enrichment of Myrcludex B in the liver tissue” value [1] is listed as 0.33 %ID/g and the oral bioavailability [2] is listed as < 1%.
